# Values of other authors as cited in patent US10399924B2, “Deuterium substituted fumarate derivatives” (Biogen MA Inc., priority 2012, dated 2019).
# Conditions: ALS; cited from earlier work
smiles,measurement,value
Nc1nc2ccc(OC(F)(F)F)cc2s1 [riluzole],extension of survival,approximately 3 months
